Source: PubChem BioAssay (National Center for Advancing Translational Sciences (NCATS))
TDP1 cell CPT: DT40-hTDP1 cell growth loss with CPT | chicken DT40 Tdp1-/-;hTDP1 cells + 20 nM CPT, ATP luminescence, 48 h | Potency, µM (highest dose often 46.2 µM), for inactives: top-dose activity change, negative = growth inhibition, hits mostly inhibitors | 420,000 tested, 12% active; also: potency is read from the fitted curve at half-maximal effect; % is scaled to controls: 0 for no effect and ±100 for the full control effect; nearly all actives have a fitted effect of over 55% in size
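Chicken DT40 Tdp1-/- cells stably complemented with human TDP1 were seeded at 400 cells/well in medium containing 20 nM camptothecin, exposed to pin-transferred compounds, and grown at 37 °C for at least 48 hr. Viability was read as ATP luminescence.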
miR-21 reporter: miR-21 reporter, rising signal; HeLa miR-21 FLuc reporter, luciferase, 48 h; Potency, µM (titrated, usually from 38.3 µM), without a hit: top-dose reporter change, positive = more light; AID 2288; 340,000 tested, under 10 active; active = well fitted rising curve with a large enough effect; inconclusive = small, poorly fitted or top-dose-only effect; inactive = no such curve, though single readings can be large or run the other way;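 further: % of control where 0% means no effect; miR-21 action dims this reporter so a rising signal means less miR-21 action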
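Luminescence from a firefly luciferase reporter carrying a miR-21 binding site downstream, stably expressed under a CMV promoter in HeLa cells that make miR-21 endogenously, reports miRNA modulation after 48 h compound exposure up to approximately 40uM final.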
uPA surface inh: cell surface uPA generation inhibition. cell surface uPA generation assay, qHTS. Potency, µM (titrated, usually from 38.3 µM), inactives show at the highest dose activity change, negative = inhibition, usual class: inhibitors. 330,000 tested, 0.31% active. AID 540303; active = well fitted inhibition curve with a large enough effect; inconclusive = small, poorly fitted or top-dose-only effect; inactive = no such curve, though single readings can be large or run the other way; tested in mouse RAW 264.7 cells; also: potency is read from the fitted curve at half-maximal effect; % is scaled to controls: 0 for no effect and ±100 for the full control effect; nearly all actives have a fitted effect of over 55% in size
TDP1 cell noCPT: qHTS for Inhibitors of human tyrosyl-DNA phosphodiesterase 1 (TDP1): qHTS in cells in absence of CPT | DT40 Tdp1-/- hTDP1 cells, no CPT, ATP luminescence, 48 h | Potency, µM (series often up to 46.2 µM), inactives show top-dose activity change, negative = growth inhibition, most hits filed as inhibitors | 420,000 tested, 15% active | AID 686978, 2013; also: potency is read from the fitted curve at half-maximal effect; % is scaled to controls: 0 for no effect and ±100 for the full control effect; nearly all actives have a fitted effect of over 55% in size
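Growth of hTDP1-complemented DT40 Tdp1-knockout cells is measured by ATP luminescence after at least 48 hr compound exposure at 37 °C, with DMSO substituting for the 20 nM CPT used in the parallel screen.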
TDP1 block: TDP1 (human) enzyme inhibition; Q9NUW8; 350,000 tested, 0.28% active; recombinant TDP1, AlphaScreen DNA substrate cleavage; Potency, µM (doses to about 130 µM), for inactives: at the highest dose activity change, negative = inhibition, actives largely listed as inhibitors; AID 485290; also: potency is read from the fitted curve at half-maximal effect; % is scaled to controls: 0 for no effect and ±100 for the full control effect; nearly all actives have a fitted effect of over 40% in size
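Enzyme-compound mixtures sat 15 min at room temperature, followed by a 5 min reaction with 15 nM final substrate and 10 min with AlphaScreen beads. Recombinant human Tdp1 was used at 1 nM final.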
Starred values were filed as active, the others as inactive; ? = inconclusive; · = no result given; ! = repeats disagree; [ ] = another dose, or the depositor's remark. Only some compounds are listed: those with a hit (about 16% of all), similar ones and a draw of the others. Unless noted, calls follow the shape of the dose curve; as a rule, active = well fitted curve in the direction sought with a large enough effect; inconclusive = small, poorly fitted or top-dose-only effect, or another doubt; inactive = no such curve, though single readings can be large; an effect the other way counts as inactive or inconclusive.

SMILES	TDP1 cell CPT	miR-21 reporter	uPA surface inh	TDP1 cell noCPT	TDP1 block
O=c1nc2c(-c3cccc(Br)c3)n[nH]n2c2ccccc12	?	-15.9%	7.1%	?	·
COc1ccc(CN(Cc2cc3cc4c(cc3[nH]c2=O)OCO4)C(=O)NC2CCCCC2)cc1	18.4µM*	-1.9%	2.0%	23.1µM*	2.8%
COc1ccc2[nH]c(=O)c(CN(C(=O)NC3CCCCC3)C3CCCCC3)cc2c1	20.6µM*	-3.6%	-1.0%	20.6µM*	5.3%
COc1ccc2[nH]c(=O)c(CNC3CCCCC3)cc2c1	-26.2%	-3.2%	-2.0%	-21.2%	5.7%
CCN(CC)CCCN(Cc1cc2cc3c(cc2[nH]c1=O)OCO3)C(=S)Nc1ccc(OC)cc1	-28.0%	-4.3%	-7.8%	29.1µM*	3.0%
CCOc1cc(/C=C2/C(=O)ON=C2C)cc(Br)c1O	?	-0.1%	-13.8%	?	·
CC(C)(Oc1ccc(CCNC(=O)c2ccc(Cl)cc2)cc1)C(=O)O	5.0%	-15.4%	-7.7%	-0.7%	2.7%
Cc1cccc(N2CCN(C(=O)c3ccc4ncsc4c3)CC2)c1C	2.06µM*	-0.9%	-15.7%	5.17µM*	1.0%
CN(C1CCCCC1)S(=O)(=O)c1ccc(C(=O)N2CCN(c3nc4ccccc4s3)CC2)cc1	23.1µM*	-0.5%	-2.2%	14.6µM*	0.0%
Cc1cccc(N2CCN(C(=O)N3CCOCC3)CC2)c1C	?	-1.9%	-10.0%	20.6µM*	-2.8%
Cc1cccc(N2CCN(C(=O)c3ccnn3C)CC2)c1C	-13.6%	0.9%	6.7%	-7.5%	0.3%
Cc1cccc(N2CCN(C(=O)c3ccncc3)CC2)c1C	20.6µM*	17.6%	-6.4%	20.6µM*	1.1%
Cc1ccc2ncc(C(=O)Nc3cccc(C(F)(F)F)c3)c(=O)n2c1	0.1%	-5.6%	·	1.6%	-3.9%
CC(C)C(C(=O)N1CCOCC1)N1C(=O)c2ccccc2C1=O (configuration not stated)	-3.7%	-7.9%	-0.9%	-3.2%	-4.7%
Cc1ccc(C)c(N2CCN(c3nc4ccccc4c4nc(CCn5nc(C)cc5C)nn34)CC2)c1	-23.5%	1.8%	·	-1.0%	-2.9%
CC(=O)Nc1ccc(NC(=O)c2c(C)nn(Cc3ccccc3Cl)c2C)cc1	5.5%	-4.0%	-1.4%	-2.0%	3.9%
Cc1cccc(N2CCN(C(=O)C(Cc3ccccc3)n3cccc3)CC2)c1C (configuration not stated)	18.4µM*	2.8%	?	16.4µM*	6.5%
O=C(c1cc2sccc2n1Cc1ccccc1)N1CCN(c2nc3ccccc3s2)CC1	14.6µM*	6.1%	-0.6%	14.6µM*	3.1%
Cc1cccc(N2CCN(C(=O)c3c(C)nn(Cc4ccccc4Cl)c3C)CC2)c1C	9.2µM*	17.6%	-5.2%	10.3µM*	3.5%
Cc1ccc(NC(=O)C(Cc2ccccc2)n2cccc2)cc1C (configuration not stated)	11.6µM*	6.8%	·	16.4µM*	2.0%
Cc1cccc(C(=O)OCC(=O)Nc2ccc3c(c2)OCCO3)c1	?	·	9.0%	?	1.1%
Cc1cccc(N2CCN(C(=O)Cc3ccccc3[N+](=O)[O-])CC2)c1C	-18.0%	-37.5%	-12.6%	20.6µM*	5.1%
O=C(c1ccc2ncsc2c1)N1CCN(c2nc3ccccc3s2)CC1	?	17.4%	-5.5%	14.6µM*	3.7%
O=C(c1ccc2ncsc2c1)N1CCN(c2ccc(O)cc2)CC1	?	-9.4%	-14.1%	20.6µM*	-7.6%
CC1CC(C)CN(C(=O)c2ccc3ncsc3c2)C1 (configuration not stated)	-25.7%	·	-3.9%	-7.3%	0.7%
NS(=O)(=O)c1cccc2c1c([N+](=O)[O-])cc1nc(O)c(O)nc12	-4.0%	·	1.6%	6.0%	-12.3%[56.1 µM]
O=C(NCCc1c[nH]c2ccccc12)c1ccccc1O	·	·	·	·	14.8%
Nc1nc2cc3c(cc2cc1C(=O)NCc1ccc(F)cc1)OCO3	16.4µM*	·	·	4.11µM*	·
Cn1c(C(=O)NCCc2c[nH]c3ccccc23)cc2sccc21	?	-57.1%	-12.3%	?	10.5%
CC(=O)NCCc1c[nH]c2ccc(O)cc12	18.4µM*!	·	-3.3%	-18.3%	9.1%[56.1 µM]
O=C(NCCc1c[nH]c2ccccc12)c1cc2sccc2n1Cc1ccccc1	23.1µM*	13.2%	-2.6%	20.6µM*	7.9%
Nc1nc2ccc(Cl)cc2cc1C(=O)NCCc1c[nH]c2ccccc12	8.2µM*	·	·	?	·
O=C(CCS(=O)(=O)c1cc2c(cc1Cl)NC(=O)CO2)NCc1ccc(F)cc1	-9.5%	-1.8%	7.1%	-0.3%	·
Cc1ccc(Oc2ncccc2NC(=O)CC(CC(=O)O)c2ccccc2)c2c1CCC2 (configuration not stated)	-5.1%	-0.2%	2.0%	-4.5%	-1.9%
CC(=O)Nc1ccc(Nc2c([N+](=O)[O-])c(=O)n(-c3ccccc3)c3ccccc23)cc1	1.1%	-5.0%	2.7%	1.0%	1.2%
O=C(Cc1ccc(Cl)cc1)NCCc1c[nH]c2ccccc12	18.4µM*	·	6.0%	?	·
Nc1nc2ccc(Cl)cc2cc1C(=O)NC1CC1	-8.9%	·	·	-15.5%	·
O=C(CCCCCNc1nc(=S)[nH]c2ccccc12)NCCc1c[nH]c2ccccc12	18.4µM*	0.2%	17.1%	14.6µM*	5.7%
OCc1c[nH]c2ccccc12	17.2µM*!	·	-4.2%	38.6µM*!	2.4%
Nc1nc2ccc(Cl)cc2cc1C(=O)NCc1ccc(Oc2ccccc2)cc1	0.651µM*	·	·	1.3µM*	·

Brought forward from above: 6 entries; new compounds follow.
SMILES	TDP1 cell CPT	miR-21 reporter	uPA surface inh	TDP1 cell noCPT	TDP1 block
CC(=O)Nc1ccc(Nc2c([N+](=O)[O-])c(=O)n(-c3ccccc3)c3ccccc23)cc1	1.1%	-5.0%	2.7%	1.0%	1.2%
O=C(Cc1ccc(Cl)cc1)NCCc1c[nH]c2ccccc12	18.4µM*	·	6.0%	?	·
Nc1nc2ccc(Cl)cc2cc1C(=O)NC1CC1	-8.9%	·	·	-15.5%	·
O=C(CCCCCNc1nc(=S)[nH]c2ccccc12)NCCc1c[nH]c2ccccc12	18.4µM*	0.2%	17.1%	14.6µM*	5.7%
OCc1c[nH]c2ccccc12	17.2µM*!	·	-4.2%	38.6µM*!	2.4%
Nc1nc2ccc(Cl)cc2cc1C(=O)NCc1ccc(Oc2ccccc2)cc1	0.651µM*	·	·	1.3µM*	·
O=c1[nH]c2ccccc2n1Cc1ccc(F)cc1	?	1.0%	12.8%	-16.3%	·
CSc1ccccc1NC(=O)CN(C)C(=O)C1CC(=O)N(C(C)c2ccccc2)C1 (configuration not stated)	-5.4%	·	11.4%	-14.9%	0.6%
CCC(=O)c1ccc(OCC(=O)O)c(OC)c1	4.6%	-1.5%	17.8%	-0.3%	-1.2%
C=C1SC(=Nc2ccccc2Cl)N(C(=O)c2sc3ccccc3c2Cl)C12CCCCC2	·	-21.0%	·	·	3.8%
C=C1SC(=Nc2c(C)cc(C)cc2C)N(C(=O)c2sc3ccccc3c2Cl)C12CCCCC2	?	-3.1%	-2.0%	20.6µM*	2.6%
CC(NC(=O)c1ccc2c(=O)n3c(nc2c1)CCC3)c1ccc(S(N)(=O)=O)cc1 (configuration not stated)	13.1%	·	1.0%	11.2%	1.1%
CCOc1ccc(NC(=O)CCS(=O)(=O)c2ccc(Br)s2)cc1	18.4µM*	-1.0%	·	14.6µM*	-6.4%
Cc1ccc(NC(=O)CCS(=O)(=O)c2ccc(Br)s2)cc1	-20.7%	-0.7%	·	?	-5.7%
O=C1S/C(=C/c2ccccc2F)C(=O)N1CCN=C1NS(=O)(=O)c2ccccc21	16.4µM*	-5.0%	-3.2%	?	1.2%
